Here are results for 1 compound from PubChem BioAssay AID652083 (The Scripps Research Institute Molecular Screening Center, 2013).

Some of the results follow. The source made the active and inactive calls.

In this assay the test system is KV channel. The assay is described as follows: PubChem AID 652083. To be noted: CEREP radioligand binding panel, % inhibition at 10 uM, hits give high values.

Regarding `COC(=O)c1cc(Br)cnc1N1CCC(NC2CCCCC2)C(O)C1` (stereo unspecified), the inhibition of specific binding is inactive: -15%.
